Here are results for 2 molecules from patent publication US5712265A (The General Hospital Corporation, priority 1995, dated 1998).

Test [1] in a line: Synergistic effect of M1 antagonist and D2 agonist: body fat and glucose tolerance test (Example 5). It is filed as in vivo, female Syrian Hamster. The conditions noted are these: for body fat pad wt / body wt: daily for eight weeks, bromocriptine 200 μg/animal, methscopolamine 20 mg/kg, pirenzepine 20 mg/kg; for body wt: 9 HALO; for AUC/Glucose / AUC/Insulin: glucose tolerance test, 2.0 g/kg i.p., after eight weeks.

A short description of test [2]: Synergistic effect of M1 antagonist and prolactin inhibitor: body fat (Example 6). It is filed as in vivo, female Syrian Hamster. The note with it: i.p. eight weeks, bromocriptine 200 μg/animal, methscopolamine 1 mg/kg; for body wt: 9 HALO.
Test [3] has as its system muscarinic receptors expressed in pancreatic islet cells. The note with it: cited from earlier work.

With `CC(C)C[C@H]1C(=O)N2CCC[C@H]2[C@]2(O)O[C@](NC(=O)[C@@H]3C=C4c5cccc6[nH]c(Br)c(c56)C[C@H]4N(C)C3)(C(C)C)C(=O)N12` [bromocriptine], in test [1], the “body fat pad wt” value is listed as 6.0 ± 0.4 g, the body wt is 182 ± 9 g, the AUC/Glucose is 474 ± 36 mg % (hr) and the AUC/Insulin is 265 ± 80 μU/ml (hr). In test [2], the “body fat pad wt” value is 5.2 ± 0.4 g and the body wt came out at 184 ± 7 g.
Turning to `C[N+]1(C)[C@@H]2C[C@@H](OC(=O)[C@H](CO)c3ccccc3)C[C@H]1[C@@H]1O[C@@H]12` [methyl scopolamine], in test [1], the “body fat pad wt” value is listed as 7.2 ± 0.4 g, the body wt was determined as 206 ± 6 g, the AUC/Glucose is reported as 495 ± 31 mg % (hr) and the AUC/Insulin was 373 ± 26 μU/ml (hr). In test [2], the “body fat pad wt” value stood at 5.8 ± 0.4 g and the body wt came to 201 ± 9 g. Also, in test [3] (insulin treatment of STZ rats), the “binding after insulin treatment” value was “lowered”. The “binding to pancreatic islet cells after fasting” value in test [3] (non-diabetic rats, fasting) is listed as “decreased”. In addition, in test [3] (streptozotocin-induced diabetes), the “enhancement of binding to islets of STZ-diabetic rats vs normal cells” value is 80%.
